The results in this text go back to publication PMC11335280.

This assay deals with FGF12b-GFP-myc (UniProt P61328). The experiment in a line: proximity ligation; DuoLink in situ PLA with anti-GFP and anti-ATP1A1 antibodies in fixed (4% PFA), permeabilised (0.1% Triton X-100) U2OS-FGF12a-GFP-myc or U2OS-FGF12b-GFP-myc cells; PLA signal in cytoplasm per cell.

Turning to “A1 subunit of Na(+)/K(+) ATPase (ATP1A1) (from UniProt P05023 1-1023) (natural protein)”, the PLA spots, fewer than with FGF12a-GFP-myc worked out at 50 % fewer.
